Source: patent publication US5610271A, “Kappa receptor selective opioid peptides” (Torrey Pines Institute for Molecular Studies, priority 1995, dated 1997)

Amino acid sequences for entries named in this document (tags omitted). A change or cut given only in a name is not applied to a line headed by its entry.
UniProt P41144: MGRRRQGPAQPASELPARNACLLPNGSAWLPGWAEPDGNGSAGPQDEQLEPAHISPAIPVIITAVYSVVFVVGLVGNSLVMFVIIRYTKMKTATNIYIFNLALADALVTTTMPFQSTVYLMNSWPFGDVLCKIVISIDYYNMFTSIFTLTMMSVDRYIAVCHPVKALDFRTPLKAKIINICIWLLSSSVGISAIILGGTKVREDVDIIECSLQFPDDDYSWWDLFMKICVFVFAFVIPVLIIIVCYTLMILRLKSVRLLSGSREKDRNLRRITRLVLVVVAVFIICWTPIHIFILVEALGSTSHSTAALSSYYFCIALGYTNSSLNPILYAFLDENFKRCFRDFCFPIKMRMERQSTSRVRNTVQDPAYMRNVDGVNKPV

Target: T1, κ receptor (Cavia porcellus, UniProt P41144)
T1 construct: tissue homogenates prepared from guinea pig brains (cortex and cerebellum); tissue Harlan Bioproducts for Science (Indianapolis, Ind.); host or cells: guinea pig brain, cortex and cerebellum, crude membrane homogenate
Test: Radioreceptor assay selective for the kappa receptor (inhibition of [3H]-U69,593 binding)
Parameters: species or system guinea pig
Experimental: Guinea pig brains, frozen in liquid nitrogen, were obtained from Harlan Bioproducts for Science (Indianapolis, Ind.). Frozen brains were thawed, the cerebella and cortex were removed and weighed. The combined cortex and cerebella were homogenized in 40 ml Tris-HCl buffer (50 mM, pH 7.4, 4° C.) containing 100 μM phenylmethylsulfonyl fluoride (PMSF) 5 mM MgCl2 and 1 mg/ml bovine serum albumin (BSA) and centrifuged (39000×g) (Model J2-HC; Beckman Instruments, Fullerton, Calif.) for 10 min at 4° C. The pellets were resuspended in fresh Tris-HCl buffer and incubated at 37° C. for 40 min. Following incubation, the suspensions were centrifuged as above, the resulting pellets resuspended in 100 volumes of Tris buffer and the suspensions combined. Membrane suspensions were prepared and used in the same day. Protein content of the crude homogenates ranged from 0.1-0.3 mg/ml as determined using the method described by Bradford in Anal. Biochem. 72:248-254 (1976), which is incorporated herein by reference.
Binding assays were carried out in polypropylene tubes. […] Assay tubes were incubated for 2.5 hr at 25° C. […] Bound radioactivity was counted on a Beta-plate Liquid Scintillation Counter (Life Technologies, Gaithersburg, Md.) and expressed in counts per minute (cpm). […] IC50 values were then calculated using the software […] […]

With `CCCC[C@@H](NC(=O)[C@@H](Cc1ccccc1)NC(=O)[C@H](N)Cc1ccccc1)C(=O)N[C@H](CCCNC(=N)N)C(=O)O` [SEQ ID NO. 12, (D)Phe-(D)Phe-(D)Nle-(D)Arg] the IC50 was 800 pM.
